Reference: patent US4762846A (priority 1986, dated 1988)

Chains of the proteins cited; added tags and fusions are not shown.
UniProt P33535, whole entry, looked up: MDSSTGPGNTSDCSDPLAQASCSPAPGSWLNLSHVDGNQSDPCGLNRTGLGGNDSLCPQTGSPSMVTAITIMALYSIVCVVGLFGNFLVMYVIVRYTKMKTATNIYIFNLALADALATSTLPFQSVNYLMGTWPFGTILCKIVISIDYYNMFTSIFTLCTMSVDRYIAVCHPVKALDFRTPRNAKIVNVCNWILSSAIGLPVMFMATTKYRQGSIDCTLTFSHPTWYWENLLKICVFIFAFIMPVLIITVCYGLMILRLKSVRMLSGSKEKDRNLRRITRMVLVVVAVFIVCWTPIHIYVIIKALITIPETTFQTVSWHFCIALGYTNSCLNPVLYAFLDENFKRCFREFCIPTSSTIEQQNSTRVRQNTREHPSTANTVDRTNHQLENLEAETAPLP

What was measured:
muscarinic receptors = experiment: [3H]QNB displacement and irreversible loss of binding; set-up: species or system rat; details: 0.5 nM [3H]QNB
[1] = Behavioral effects of Metaphit alone
[2] = test system: benzodiazepine receptors ([3H]diazepam site); experiment: [3H]Diazepam displacement and irreversible loss of binding; set-up: species or system rat; details: 5 nM [3H]Diazepam
opioid receptors = opioid receptors (Rattus norvegicus, UniProt P33535); experiment: [3H]Dihydromorphine displacement and irreversible loss of binding

For `S=C=Nc1cccc(C2(N3CCCCC3)CCCCC2)c1`, which IC50 (muscarinic receptors) is on record?
The IC50 was 19 µM.

What about the behavioral effects ([1]; Metaphit 1 μmol/rat i.c.v.) of the same molecule?
Its behavioral effects is “did not produce any significant behavioral effects”.

And the behavioral effects ([1]; Metaphit 2-8 μmol/rat i.c.v.)?
The behavioral effects was “what appeared to be a calming effect”.

And the IC50 [2]?
Its IC50 is over 1000 µM.

What about the “inhibition of [3H]dihydromorphine binding” value (opioid receptors) of the same molecule?
Its value is “competitively inhibited”.

What about the “irreversible blockade of opioid receptors” value (opioid receptors) of the same molecule?
Its value is “no irreversible blockade of opioid receptors could be observed”.

What about the IC50 (opioid receptors; 1 nM [3H]Dihydromorphine) of the same molecule?
Its IC50 is 11 µM.

What about the “Maximum % Alkylation by 10 uM Metaphit” value (opioid receptors; [3H]Dihydromorphine, 10 uM) of the same molecule?
The value was 0%.
